Earlier results, collected in patent US20160186266A1, “MOLECULAR PROFILING FOR PERSONALIZED MEDICINE” (CARIS LIFE SCIENCES, INC., priority 2009, published 2016).

Tested on: HER2 positive breast cancers
Conditions: unselected HER2+ patients

For “trastuzumab: monoclonal antibody that interferes with the HER2/neu receptor”, the “percentage of HER2 positive breast cancers that respond to treatment” value is given as “about 30%”.
